Results reported in patent US20260200947A1, “FUSED CYCLIC COMPOUNDS AND USE THEREOF” (Jacobio Pharmaceuticals Co., Ltd., priority 2022, published 2026).

How the values were obtained:
[1] = system: AsPC-1 cells (K-Ras G12D)

Structure (SMILES)	IC50 [1] [nM]	IC50 (SW620 cells (K-Ras G12V)) [nM]	IC50 (AGS cells (K-Ras G12D)) [nM]
C#Cc1c(F)ccc2cc(O)cc(-c3nc4c5c(nc(OC[C@@]67CCCN6C[C@H](F)C7)nc5c3F)N3CCCOC[C@H]3N4C)c12 [Compound 50]	11.2	0.326	1.04
C#Cc1c(F)ccc2cc(N)cc(-c3nc4c5c(nc(OCC67CC(C)CN6C[C@H](F)C7)nc5c3F)N3CCCOC[C@H]3CO4)c12 (stereo partly drawn) [Compound 32]	871	60.3	
C#Cc1cccc2cc(N)cc(-c3nc4c5c(nc(OC[C@@]67CCCN6C[C@H](F)C7)nc5c3F)N3CCCOC[C@H]3N4C)c12 [Compound 51]	34.1	4.73	4.53
C#Cc1c(F)c(F)cc2cc(N)cc(-c3nc4c5c(nc(OC[C@@]67CCCN6C[C@H](F)C7)nc5c3F)N3CCCOC[C@H]3N4C)c12 [Compound 45]	22.9	9.38	5.58
C#Cc1c(F)ccc2cc(N)cc(-c3nc4c5c(nc(OCC67C[C@@H](F)CN6CC6(CC6)C7)nc5c3F)N3CCCOC[C@H]3CO4)c12 (stereo partly drawn) [Compound 33]	66.4	10.9	9.7
C#Cc1c(F)ccc2cc(N)cc(-c3nc4c5c(nc(OC[C@@]67CCCN6C[C@H](F)C7)nc5c3F)N3[C@@H](CC)CCOC[C@H]3CO4)c12 [Compound 65]			7.51
C#Cc1c(F)ccc2cc(N)cc(-c3nc4c5c(nc(OC[C@@]67CCCN6C[C@H](F)C7)nc5c3F)N3CC(F)(F)CCC3N4C)c12 (stereo partly drawn) [Compound 53]	750	79.8	112
C#Cc1c(F)ccc2cc(N)cc(-c3nc4c5c(nc(OC[C@@]67CCCN6C[C@H](F)C7)nc5c3F)N3CCCC[C@@H](F)C3N4C)c12 (stereo partly drawn) [Compound 49]	29.9	4.68	5.45
C#Cc1c(F)c(F)cc2cc(N)cc(-c3nc4c5c(nc(OC[C@@]67CCCN6CC(=C)C7)nc5c3F)N3CCCOC[C@H]3CO4)c12 [Compound 34]	36.4	3.49	2.05
